This note sets out measurements from ChEMBL document CHEMBL4145686, “Discovery of a Potent and Selective Steroidal Glucocorticoid Receptor Antagonist (ORIC-101)” (J Med Chem, 2018).

The species entered for this assay is Homo sapiens. Briefly: Selectivity index, ratio of IC50 for antagonist activity at human PR expressed in CHO-K1 cells to IC50 for antagonist activity at human GR expressed in CHO-K1 cells a. The assay is classed as cell-based.

As for `CC(C)N(C)c1ccc([C@H]2C[C@@]3(C)[C@@H](CC[C@@]3(O)C#CC(C)(C)C)[C@@H]3CCC4=CC(=O)CC[C@@H]4[C@H]32)cc1`, the Ratio IC50 stood at 3.8.
